{"sequences": {"note": "Chains of the proteins cited; added tags and fusions are not shown.", "UniProt P48067, whole entry": "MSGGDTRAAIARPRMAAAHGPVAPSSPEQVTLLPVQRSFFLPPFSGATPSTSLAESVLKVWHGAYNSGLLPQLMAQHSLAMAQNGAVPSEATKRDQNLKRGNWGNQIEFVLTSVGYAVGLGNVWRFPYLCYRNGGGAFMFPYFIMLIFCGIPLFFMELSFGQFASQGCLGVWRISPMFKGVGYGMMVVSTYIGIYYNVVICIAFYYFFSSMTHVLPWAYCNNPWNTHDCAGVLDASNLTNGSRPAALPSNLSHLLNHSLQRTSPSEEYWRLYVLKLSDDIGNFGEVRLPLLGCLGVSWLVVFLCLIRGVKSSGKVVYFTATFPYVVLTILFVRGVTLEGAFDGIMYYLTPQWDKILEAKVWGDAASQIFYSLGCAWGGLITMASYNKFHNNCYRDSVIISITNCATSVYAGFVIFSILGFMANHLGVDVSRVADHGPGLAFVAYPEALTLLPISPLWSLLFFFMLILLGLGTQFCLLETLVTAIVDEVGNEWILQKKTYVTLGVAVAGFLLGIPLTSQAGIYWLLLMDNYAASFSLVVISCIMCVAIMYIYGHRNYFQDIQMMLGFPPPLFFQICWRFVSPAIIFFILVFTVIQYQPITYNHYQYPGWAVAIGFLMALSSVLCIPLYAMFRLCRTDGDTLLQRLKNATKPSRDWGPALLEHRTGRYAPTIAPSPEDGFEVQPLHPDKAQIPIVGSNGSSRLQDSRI"}, "source": "patent US9067871B2", "about": "“Aminotetraline derivatives, pharmaceutical compositions containing them, and their use in therapy” (ABBVIE DEUTSCHLAND GMBH & CO KG, priority 2009, dated 2015)", "target": "human GlyT1c transporter (Homo sapiens (Human), UniProt P48067)", "assay": "Radioligand binding assay using recombinant CHO cell membranes expressing human GlyT1", "details": "read-out: radioligand binding Kiapp, tested form: HCl", "data": [{"smiles": "Cn1cc(S(=O)(=O)NCCOc2ccc3c(c2)C(Cc2ccccc2)C(N2CCCC2)CC3)cn1", "note": "(stereo not shown)", "values": [{"measurement": "Ki", "value": "≤ 0.01", "unit": "µM"}]}]}
